From US11506654B2, “Method, composition and kit for screening ALK or ROS-1 kinase inhibitor” (KOREA INSTITUTE OF SCIENCE AND TECHNOLOGY, priority 2018, dated 2022)

Tested on: HCC-78 cell line
Experiment: Change in metabolites in HCC-78 cell line after ALK/ROS-1 kinase inhibitor treatment, UHPLC-MS
Format: cell-based
Conditions: HCC-78, 1 μM, 24 hours, n=5
Description: HCC-78 lung cancer cells were cultured in a 5% carbon dioxide cell incubator at a temperature of 37° C. using a RPMI medium containing 10% fetal bovine serum and 1% antibiotic. Thereafter, when the cell growth was stabilized, the cells were treated with each of crizotinib and ceritinib of ALK and ROS-1 kinase inhibitors at a concentration of 1 μM so as to have a percentage of 0.01% of the total medium and then cultured for 24 hours. At this time, as a control group, DMSO (dimethyl sulfoxide) was added to the cells in an amount to be 0.01% of the total medium, and the cells were cultured for 24 hours. Each cell was cultured in 5 cell dishes for each group so that the total number of experiments for each group was 5 (n=5).
After the culture time of 24 hours had elapsed, the medium was removed, and the cells were washed two times with PBS (phosphate buffered saline). The cells were then acquired from the culture dish using a cell scraper, put in a tube, and stored at −80° C.
For mass analysis, 120 μL of a 70% methanol solution containing 2 μg/mL of reserpine as an internal standard substance was added to the cells obtained in Example 2-1, and then the mixture was subjected to vortexing so as to allow the cells to mix well. Thereafter, a process in which the mixed solution was frozen using liquid nitrogen, dissolved in water at room temperature, and then sonicated for 30 seconds was repeated three times to destroy the cells. Thereafter, the resultant mixed solution was subjected to centrifugation at 14000 rpm for 10 minutes, and only the supernatant was separated from this. At this time, DNA quantitation was conducted in order to correct the cell volume of the intracellular fluid extract acquired according to the series of procedures. DNA quantitation was conducted by mixing the extract with water at a ratio of 1:3, putting 5 μL of the mixture in a cuvette, and measuring the quantity at 260 nm by using a spectrophotometer Nano-MD of SHINKO CO., LTD. […]

In the case of `C[C@@H](Oc1cc(-c2cnn(C3CCNCC3)c2)cnc1N)c1c(Cl)ccc(F)c1Cl` [crizotinib], the “AMP increase as compared with control group” value is reported as 140.79%, the “adenosine decrease as compared with control group” value is reported as 93.43% and the “cAMP decrease as compared with control group” value is reported as 72.03%.
